This note sets out measurements from publication PMC7759402 (Journal of Analytical Methods in Chemistry, 2020).

Usually AUC(0-inf) stands for total exposure, with the tail of the curve extrapolated. Low values mean less exposure, high ones more exposure. For orientation: AUC(0-t) means exposure summed from dosing to a finite time, without extrapolation to infinity. Read a low AUC(0-t) as low exposure. As a reminder, the CL/F is clearance divided by bioavailability, as obtained after extravascular dosing. As usually defined, the Vd/F is the apparent distribution volume after extravascular dosing. Broadly, the half-life is the time in which the quantity being followed falls by half. Lower therefore signals fast loss.

This data set is described as follows: in vivo. The conditions noted are these: male, Sprague-Dawley, rat, po, 10 mg/kg.

Turning to `Cc1nc2c(-c3cnc(N)nc3)nc(N3CCOCC3)nc2n1C(C)C` [VS-5584], the AUC(0-inf) worked out at 929 ± 228 ng·h/mL, the exposure AUC(0-t) came out at 865 ± 192 ng·h/mL, the CL/F was 188 mL/min/kg and the Vd/F came out at 54.1 ± 29.6 L/kg. Besides, the half-life is 3.28 ± 1.37 h.
